{"source": "patent US9775890B2", "about": "“Factor Xa inhibitor used with liver-derived progenitor cells” (UNIVERSITÉ CATHOLIQUE DE LOUVAIN, priority 2012, dated 2017)", "system": "cells with PCA", "test": "Analogous thromboelastometry experiments with different direct factor Xa inhibitors plus direct thrombin inhibitor", "assay_type": "cell-based", "details": "present tense", "protocol": "Measurements were performed on a ROTEM® delta analyser (Pentapharm, Munich, Germany). ROTEM® assesses the kinetics and quality of clot formation and clot lysis in real-time. The clotting time (CT) is defined as the period of time from the start of the analysis until the start of clot formation, normally until the 2 mm amplitude is reached. The clot formation time is defined as the period until the 20 mm amplitude is reached. The alpha angle is defined as the angle between the centre line and a tangent to the curve through the 2 mm amplitude point, which is the end of the CT. The maximum amplitude of the curve is defined as the maximum clot firmness. The maximum of lysis represents the maximum fibrinolysis detected during the measurement. We focused on CT.\nBriefly, after a short rest period, 300 μl of whole blood was pipetted into a cup pre-warmed at 37° C. Suspended cells were subsequently added to whole blood (5×10exp5 cells if no specification). Twenty μl of trigger reagent containing tissue factor (TF) (Innovin, Siemens, Marburg, Germany. Final dilution 1:17000/0.35 pM) diluted in Owren buffer (Siemens, Marburg, Germany) was then added to the cell-blood mixture followed by the necessary addition of 20 μl of 0.2 M CaCl2. After calcium addition, measurements started automatically. The procoagulant activity (PCA) of cells was also determined without addition of Innovin. […]", "data": [{"compound": "CN1CCc2nc(C(=O)N[C@@H]3C[C@@H](C(=O)N(C)C)CC[C@@H]3NC(=O)C(=O)Nc3ccc(Cl)cn3)sc2C1", "note": "[edoxaban, N′-(5-chloropyridin-2-yl)-N-[(1S,2R,4S)-4-(dimethylcarbamoyl)-2-[(5-methyl-6,7-dihydro-4H-[1,3]thiazolo[5,4-c]pyridine-2-carbonyl)amino]cyclohexyl]oxamide]", "values": [{"measurement": "Modulation of PCA of cells by concomitant use of the direct factor Xa inhibitor with a direct thrombin inhibitor (hirudin or bivalirudin)", "result": "able to modulate PCA"}]}]}
